Laboratory results: ChEMBL document CHEMBL6120995, “Orvinol-based opioid receptor antagonist fluorinated at C(20)-pharmacophore” (2025)

Test system: Mus musculus
Assay: Analgesic activity in morphine-induced male Swiss mouse assessed as latency of tail administered subcutaneously pretreated with compound for 30 mins followed by morphine treatment and measured after 30 to 120 mins by tail-flick test
Settings: dose 0.1-10 mg/kg, route sc

C=CCN1CC[C@]23c4c5ccc(O)c4O[C@H]2[C@@]2(O)CC[C@@]3(C[C@@H]2[C@](C)(O)C(F)(F)F)[C@H]1C5
Activity: Dose-dependent-effect
